These results are taken from ChEMBL document CHEMBL1275455, “Resistance and virulence of Pseudomonas aeruginosa clinical strains overproducing the MexCD-OprJ efflux pump” (2008).

For assay [1], the system named is Pseudomonas aeruginosa. Conditions: 2126.
In assay [2] the test system is Pseudomonas aeruginosa. Conditions: 2439.

Regarding GENTAMICIN, the MIC in the assay with Pseudomonas aeruginosa [1] and in the assay with Pseudomonas aeruginosa [2] was 0.5 µg/mL each time.

Broadly, the MIC is the lowest concentration that inhibits growth of the organism.
